Measured values reported in ChEMBL document CHEMBL5344428, “Discovery, Crystallographic Studies, and Mechanistic Investigations of Novel Phenylalanine Derivatives Bearing a Quinazolin-4-one Scaffold as Potent HIV Capsid Modulators” (J Med Chem, 2023).

Experiment: Metabolic stability in human liver microsomes assessed as half-life at 1 uM incubated for 60 mins in presence of NADPH by LC-MS/MS analysis
Type: ADME, Microsome
Method in brief: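 Human liver microsomes were used at a final 0.5 mg protein/mL, incubated 60 min with an NADPH regenerating system. The no-cofactor arm replaced NADPH with buffer. T1/2 came from linear regression of the kinetic data. CLint(mic) = (0.693/T1/2)/mg microsomal protein per mL. CLint(liver) was scaled by mg microsomal protein/g liver and g liver/kg body weight.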

- half-life at 1 µM: 4.5 min
SMILES: O=C(O)Cc1ccccc1Nc1c(Cl)cccc1Cl [DICLOFENAC]
